We go through one substance from US20070036775A1, “Method of modulating or examining Ku70 levels in cells” (priority 2001, published 2007).

In one test the test system is Hela cells. Briefly: STS-induced apoptosis in Hela cells, Hoechst staining of apoptotic nuclei. Format: cell-based, human. Particulars: HeLa cells transfected with Ku70 construct, 200 nM STS, 24 hours.
The subject of a further test is Caspase. Briefly: STS-induced Caspase activation (DEVD-afc cleavage) in Hela cells. Format: cell-based, human. The conditions noted are these: HeLa cells transfected with Ku70 construct. As for the experimental part: FIG. 2A: Ku70 suppressed STS-induced apoptosis in Hela cells. Hela cells (10^6 cells) were transfected with 0.5 μg pEGFP and 1.0 μg pCMV-2B (Vector), pCMV-2B-Ku70 (Ku70 wt), pCMV-2B-Ku701-535 (Ku701-535), or pCMV-2B-Ku70536-609 (Ku70536-609). One day following transfection, cells were treated with 200 nM STS and the number of apoptotic cells was counted as described in FIG. 1 after 24 hours of STS treatment. FIG. 2B: Ku70 suppressed UVC-induced apoptosis. HEK293T cells (10^6 cells) were transfected with 0.5 μg PEGFP and 1.0 μg pCMV-2B (Vector), pCMV-2B-Ku70 wt (Ku70 wt), or pCMV-2B-Ku70536-609 (Ku70536-609). One day following transfection, cells were exposed to 200 J/m^2 of UVC-irradiation. After 24 hours, apoptotic cells were counted as described in FIG. 1. FIG. 2C: Ku70 suppressed Bax-induced Caspase activation. […] Caspase activity was measured one day following transfection as described in Experimental Procedure. […] Caspase activity was assessed as described in Experimental Procedure. […] Cytochrome c released from mitochondria into cytosol was analyzed by subcellular fractionation followed by Western blot analysis of Cytochrome c (Cyt c) as well as mitochondrial FoF1-ATP-synthase subunit F1α (F1α) as described in Experimental Procedure. […]

Consider “Ku70: human full length Ku70, 70 kDa subunit of Ku-complex (609 amino acids), expressed from pCMV-2B plasmid”, for which the “effect on STS-induced apoptosis” value in the test with Hela cells is recorded as “attenuated Staurosporine (STS) induced apoptosis”. The “effect on STS-induced Caspase activation” value in the test on Caspase is given as “attenuated”.
